Earlier results as cited in patent US6505562B1, “Gas generator composition and molding thereof” (dated 2003).

Conditions: species and route not given

## [N-]=[N+]=[N-]
  acute toxicity LD50: 27 mg/kg
